Reference: patent US7439394B2, “Cyclohexyl-1,4-diamine compounds” (dated 2008)

By UniProt entry, the sequences of proteins in these tests, tags left out. Where a name states a change or a piece, a line headed by the entry shows the natural chain unless it says otherwise.
UniProt P41146: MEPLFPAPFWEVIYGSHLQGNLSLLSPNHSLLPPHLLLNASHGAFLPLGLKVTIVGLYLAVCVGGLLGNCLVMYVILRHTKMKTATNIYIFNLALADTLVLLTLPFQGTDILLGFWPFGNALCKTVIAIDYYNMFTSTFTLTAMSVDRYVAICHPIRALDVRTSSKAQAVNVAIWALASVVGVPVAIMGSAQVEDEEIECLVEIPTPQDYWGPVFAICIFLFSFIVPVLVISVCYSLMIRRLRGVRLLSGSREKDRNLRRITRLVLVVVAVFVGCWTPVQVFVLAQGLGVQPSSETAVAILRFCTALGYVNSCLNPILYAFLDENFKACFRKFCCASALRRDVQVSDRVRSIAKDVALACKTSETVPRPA
UniProt P35372, whole entry, looked up: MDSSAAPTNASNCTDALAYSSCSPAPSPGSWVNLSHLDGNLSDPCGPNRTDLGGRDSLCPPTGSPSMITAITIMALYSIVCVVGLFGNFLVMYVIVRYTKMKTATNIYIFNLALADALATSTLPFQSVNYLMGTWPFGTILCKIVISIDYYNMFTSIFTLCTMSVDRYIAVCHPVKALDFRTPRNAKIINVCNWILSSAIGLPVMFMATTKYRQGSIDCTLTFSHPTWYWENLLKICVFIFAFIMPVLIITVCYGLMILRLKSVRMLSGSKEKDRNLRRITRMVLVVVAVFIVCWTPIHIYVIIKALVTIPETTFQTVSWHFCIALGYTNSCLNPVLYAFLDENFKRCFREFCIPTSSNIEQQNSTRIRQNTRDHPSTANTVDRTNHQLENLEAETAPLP

biological target: ORL1 receptor (Homo sapiens, UniProt P41146); assay: Measurement of ORL1 binding (3H-nociceptin/orphanin FQ, membranes of recombinant CHO-ORL1 cells); details: c=1 μM; 3H-nociceptin/orphanin FQ 0.5 nM

Going from “{[1-(4-Dimethylamino-4-phenyl-cyclohexylcarbamoyl)-3-methyl-butylcarbamoyl]-methyl}-carbamic acidbenzyl ester” to “({1-[4-Dimethylamino-4-(3-fluoro-phenyl)-cyclohexylcarbamoyl]-3-methyl-butylcarbamoyl}-methyl)-carbamic acidbenzyl ester”, the “ORL-1 receptor [1 μM], % inhibition” value rises from 96% to 98%.

First: N-(4-Dimethylamino-4-pyridin-2-yl-cyclohexyl)-3-phenyl-2-(tolyl-4-sulfonylamino)-propionamide
Second: CC(NC(=O)OCc1ccccc1)C(=O)NC1CCC(c2cccs2)(N(C)C)CC1 (stereo not shown)
The “ORL-1 receptor [1 μM], % inhibition” value of the first is higher: 59% for the first, 54% for the second.

First: N-(4-Dimethylamino-4-thiophen-2-yl-cyclohexyl)-3-phenyl-2-(tolyl-4-sulfonylamino)-propionamide
Second: CN(C)C1(c2cccc(F)c2)CCC(NC(=O)CCNC(=O)OC(C)(C)C)CC1 (stereo not shown)
The “ORL-1 receptor [1 μM], % inhibition” value of the first is higher: 86% for the first, 66% for the second.

With “{[1-(4-Dimethylamino-4-thiophen-2-yl-cyclohexylcarbamoyl)-3-methyl-butylcarbamoyl]-methyl}-carbamic acidbenzyl ester” the “ORL-1 receptor [1 μM], % inhibition” value was 89%.

biological target: human μ-opiate receptor (Homo sapiens, UniProt P35372); assay: Measurement of μ binding ([3H]-naloxone displacement, CHO-K1 membrane preparation); details: test substance 1 μM; displacement of [3H]-naloxone 1 nmol/l

First: Cc1ccccc1CC1(N(C)C)CCC(NC(=O)C(C)(C)Oc2ccc(CCNC(=O)c3ccc(Cl)cc3)cc2)CC1 (stereo not shown)
Second: CC(NC(=O)OCc1ccccc1)C(=O)NC1CCC(Cc2ccccc2)(N(C)C)CC1 (stereo not shown)
The “μ-Opiate receptor [1 μM], % inhibition” value of the first is higher: 53% for the first, 41% for the second.

Going from `CN(C)C1(Cc2ccccc2)CCC(NC(=O)C(Cc2ccccc2)NC(=O)OC(C)(C)C)CC1` (stereo not shown) to `Cc1ccc(CC2(N(C)C)CCC(NC(=O)CCCCCNC(=O)OCc3ccccc3)CC2)cc1` (stereo not shown), the “μ-Opiate receptor [1 μM], % inhibition” value falls from 52% to 44%.

First: CC(C)CC(NC(=O)CNC(=O)OCc1ccccc1)C(=O)NC1CCC(Cc2cccc(Cl)c2)(N(C)C)CC1 (stereo not shown)
Second: Cc1ccccc1CC1(N(C)C)CCC(NC(=O)C(C)NC(=O)OCc2ccccc2)CC1 (stereo not shown)
The “μ-Opiate receptor [1 μM], % inhibition” value of the first is lower: 59% for the first, 61% for the second.

Going from `Cc1ccc(CC2(N(C)C)CCC(NC(=O)C(CO)NC(=O)OC(C)(C)C)CC2)cc1` (stereo not shown) to `CC(C)C(NC(=O)OCC1c2ccccc2-c2ccccc21)C(=O)NC1CCC(Cc2ccc(F)cc2)(N(C)C)CC1` (stereo not shown), the “μ-Opiate receptor [1 μM], % inhibition” value rises from 42% to 48%.

Compared with “{[1-(4-Dimethylamino-4-phenethyl-cyclohexylcarbamoyl)-3-methyl-butylcarbamoyl]-methyl}-carbamic acidbenzyl ester”, `Cc1ccccc1CC1(N(C)C)CCC(NC(=O)C(Cc2ccccc2)NC(=O)OCc2ccccc2)CC1` (stereo not shown) is higher in “μ-Opiate receptor [1 μM], % inhibition” value: 69% for the first, 78% for the second.

Going from `CC(NC(=O)OCc1ccccc1)C(=O)NC1CCC(CCc2ccccc2)(N(C)C)CC1` (stereo not shown) to `CN(C)C1(Cc2ccccc2Cl)CCC(NC(=O)C(NC(=O)OCc2ccccc2)c2ccccc2)CC1` (stereo not shown), the “μ-Opiate receptor [1 μM], % inhibition” value rises from 56% to 82%.

Going from “({1-[4-Dimethylamino-4-(2-fluoro-benzyl)-cyclohexylcarbamoyl]-3-methyl-butylcarbamoyl}-methyl)-carbamic acidbenzyl ester” to “{[1-(4-Dimethylamino-4-phenyl-cyclohexylcarbamoyl)-3-methyl-butylcarbamoyl]-methyl}-carbamic acidbenzyl ester”, the “μ-Opiate receptor [1 μM], % inhibition” value rises from 78% to 95%.

First: 3-tert.-Butoxycarbonylamino-N-[4-(2-chloro-benzyl)-4-dimethylamino-cyclohexyl]-sucinic acid cyclohexylester
Second: CC(NC(=O)OCc1ccccc1)C(=O)NC1CCC(Cc2cccc(Cl)c2)(N(C)C)CC1 (stereo not shown)
The “μ-Opiate receptor [1 μM], % inhibition” value of the first is higher: 63% for the first, 46% for the second.

First: CN(C)C1(Cc2cccc(Cl)c2)CCC(NC(=O)C(CO)NC(=O)OC(C)(C)C)CC1 (stereo not shown)
Second: O=C(NC(C(=O)NC1CCC(Cc2ccccc2)(N2CCCCCC2)CC1)c1ccccc1)OCc1ccccc1 (stereo not shown)
The “μ-Opiate receptor [1 μM], % inhibition” value of the first is lower: 54% for the first, 84% for the second.

Compared with `CN(C)C1(Cc2ccccc2F)CCC(NC(=O)C(Cc2ccccc2)NC(=O)OC(C)(C)C)CC1` (stereo not shown), “N-[4-Dimethylammino-4-(2-methyl-benzyl)-cyclohexyl]-3-phenyl-2-(tolyl-4-sulfonylamino)-propionamide” is lower in “μ-Opiate receptor [1 μM], % inhibition” value: 73% for the first, 53% for the second.

Compared with “({1-[4-Dimethylamino-4-(3-fluoro-phenyl)-cyclohexylcarbamoyl]-3-methyl-butylcarbamoyl}-methyl)-carbamic acidbenzyl ester”, `Cc1ccccc1CC1(N(C)C)CCC(NC(=O)C(NC(=O)OCc2ccccc2)c2ccccc2)CC1` (stereo not shown) is lower in “μ-Opiate receptor [1 μM], % inhibition” value: 101% for the first, 86% for the second.

First: CC(NC(=O)OCc1ccccc1)C(=O)NC1CCC(Cc2ccccc2Cl)(N(C)C)CC1 (stereo not shown)
Second: CN(C)C1(Cc2ccccc2)CCC(NC(=O)CCCCCNC(=O)OCc2ccccc2)CC1 (stereo not shown)
The “μ-Opiate receptor [1 μM], % inhibition” value of the first is higher: 82% for the first, 54% for the second.

Compared with `Cc1cccc(CC2(N(C)C)CCC(NC(=O)C(C)NC(=O)OCc3ccccc3)CC2)c1` (stereo not shown), “{[1-(4-Benzyl-4-dimethylamino-cyclohexylcarbamoyl)-3-methyl-butylcarbamoyl]-methyl}-carbamic acidbenzyl ester” is higher in “μ-Opiate receptor [1 μM], % inhibition” value: 47% for the first, 79% for the second.

First: CCCCC(NC(C)=O)C(=O)NC1CCC(Cc2ccccc2Cl)(N(C)C)CC1 (stereo not shown)
Second: CC(C)CC(NC(=O)c1ccccc1)C(=O)NC1CCC(Cc2ccc(F)cc2)(N(C)C)CC1 (stereo not shown)
The “μ-Opiate receptor [1 μM], % inhibition” value of the first is lower: 65% for the first, 76% for the second.

Going from “N-[4-(2-Chloro-benzyl)-4-dimethylamino-cyclohexyl]-3-phenyl-2-(tolyl-4-sulfonylamino)-propionamide” to “({1-[4-Dimethylamino-4-(4-methyl-benzyl)-cyclohexylcarbamoyl]-3-methyl-butylcarbamoyl}-methyl)-carbamic acidbenzyl ester”, the “μ-Opiate receptor [1 μM], % inhibition” value falls from 64% to 58%.

First: CN(C)C1(Cc2cccc(F)c2)CCC(NC(=O)C(Cc2ccccc2)NC(=O)OC(C)(C)C)CC1 (stereo not shown)
Second: N-(4-Dimethylamino-4-pyridin-2-yl-cyclohexyl)-3-phenyl-2-(tolyl-4-sulfonylamino)-propionamide
The “μ-Opiate receptor [1 μM], % inhibition” value of the first is lower: 52% for the first, 95% for the second.

Compared with “({1-[4-Dimethylamino-4-(3-fluoro-benzyl)-cyclohexylcarbamoyl]-3-methyl-butylcarbamoyl}-methyl)-carbamic acidbenzyl ester”, `Cc1cccc(CC2(N(C)C)CCC(NC(=O)C(CO)NC(=O)OC(C)(C)C)CC2)c1` (stereo not shown) is lower in “μ-Opiate receptor [1 μM], % inhibition” value: 71% for the first, 56% for the second.

Compared with `CC(NC(=O)OCc1ccccc1)C(=O)NC1CCC(c2cccs2)(N(C)C)CC1` (stereo not shown), `CC(C)CC(NC(=O)CNC(=O)OCc1ccccc1)C(=O)NC1CCC(Cc2ccccc2)(N2CCCCC2)CC1` (stereo not shown) is lower in “μ-Opiate receptor [1 μM], % inhibition” value: 96% for the first, 46% for the second.

Going from `CN(C)C1(Cc2ccccc2Cl)CCC(NC(=O)C(Cc2ccccc2)NC(=O)OC(C)(C)C)CC1` (stereo not shown) to `Cc1ccccc1CC1(N(C)C)CCC(NC(=O)C(Cc2ccccc2)NC(=O)OC(C)(C)C)CC1` (stereo not shown), the “μ-Opiate receptor [1 μM], % inhibition” value falls from 73% to 59%.

Going from “N-(4-Dimethylamino-4-thiophen-2-yl-cyclohexyl)-3-phenyl-2-(tolyl-4-sulfonylamino)-propionamide” to `CC(C)CC(NC(=O)CNC(=O)OCc1ccccc1)C(=O)NC1CCC(Cc2ccc(Cl)cc2)(N(C)C)CC1` (stereo not shown), the “μ-Opiate receptor [1 μM], % inhibition” value falls from 96% to 52%.

First: Cc1ccc(CC2(N(C)C)CCC(NC(=O)C(C)NC(=O)OCc3ccccc3)CC2)cc1 (stereo not shown)
Second: CN(C)C1(c2cccc(F)c2)CCC(NC(=O)CCNC(=O)OC(C)(C)C)CC1 (stereo not shown)
The “μ-Opiate receptor [1 μM], % inhibition” value of the first is lower: 41% for the first, 97% for the second.

Going from `CC(C)CC(NC(=O)CNC(=O)OCc1ccccc1)C(=O)NC1CCC(c2ccccc2)(N2CCCCC2)CC1` (stereo not shown) to “{[1-(4-Dimethylamino-4-thiophen-2-yl-cyclohexylcarbamoyl)-3-methyl-butylcarbamoyl]-methyl}-carbamic acidbenzyl ester”, the “μ-Opiate receptor [1 μM], % inhibition” value rises from 43% to 97%.

Going from “({1-[4-Dimethylamino-4-(2-methyl-benzyl)-cyclohexylcarbamoyl]-3-methyl-butylcarbamoyl}-methyl)-carbamic acidbenzyl ester” to “({1-[4-Dimethylamino-4-(3-methyl-benzyl)-cyclohexylcarbamoyl]-3-methyl-butylcarbamoyl}-methyl)-carbamic acidbenzyl ester”, the “μ-Opiate receptor [1 μM], % inhibition” value rises from 62% to 71%.

Compared with `Cc1cccc(CC2(N(C)C)CCC(NC(=O)C(Cc3ccccc3)NC(=O)OC(C)(C)C)CC2)c1` (stereo not shown), `Cc1ccccc1CC1(N(C)C)CCC(NC(=O)C(NC(=O)OCC2c3ccccc3-c3ccccc32)C(C)C)CC1` (stereo not shown) is lower in “μ-Opiate receptor [1 μM], % inhibition” value: 62% for the first, 46% for the second.
